Among the data in PubChem BioAssay AID1022 (Emory University Molecular Libraries Screening Center, 2008) are inhibition values, retold here.

The chains behind the UniProt entries cited, without tags or fusion partners.
UniProt Q07820, whole entry: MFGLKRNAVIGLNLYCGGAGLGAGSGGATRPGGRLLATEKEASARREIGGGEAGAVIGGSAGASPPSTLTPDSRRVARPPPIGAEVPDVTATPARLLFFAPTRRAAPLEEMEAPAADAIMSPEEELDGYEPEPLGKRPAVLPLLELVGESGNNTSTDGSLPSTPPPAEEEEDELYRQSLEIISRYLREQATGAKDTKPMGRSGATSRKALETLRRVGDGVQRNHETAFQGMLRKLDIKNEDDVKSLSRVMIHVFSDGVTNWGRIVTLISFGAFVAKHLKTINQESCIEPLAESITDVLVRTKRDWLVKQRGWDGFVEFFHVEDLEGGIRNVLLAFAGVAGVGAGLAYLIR

This is a selection; strong and weak results do not stand in their true shares. Activity calls are given as the source filed them.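 How the source made its calls: active means compounds that cut the protein-peptide binding signal by more than 50% relative to plate controls in a single-dose test; inactive means the rest.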

This assay deals with Induced myeloid leukemia cell differentiation protein Mcl-1 (Homo sapiens) (UniProt Q07820). Nature of the assay: Mcl-1/Noxa binding inhibitors, primary screen, biochemical, TR-FRET, 1536-well (AID 1022).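 Further: His-tagged Mcl-1 with rhodamine Noxa BH3 peptide and terbium anti-His antibody; 0% = Mcl-1 plus Noxa peptide wells and 100% = peptide-only wells.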 The following applies: TR-FRET Mcl-1/Noxa peptide binding, 2 h; at 21.7 µM; hits give high values.
In the case of `c1ccc(CN2CCC(Nc3ccccc3)CC2)cc1`, the inhibition (as a rule, the drop in the measured response relative to a control, in per cent) is inactive: -4.09%.
The result for `N#Cc1ccc(C(=O)NCC2(N3CCCCC3)CCCCC2)cc1` reads inactive: -11.8%.
The result for `N/C(=N\O)c1c(N)no[n+]1[O-]` reads inactive: 0.96%.
The result for `O=C(OC1CN2CCC1CC2)C1c2ccccc2C=Cc2ccccc21` (centres undefined) reads inactive: -0.51%.
For the molecule `COc1ccc(C(=O)NCC2(N3CCOCC3)CCCCC2)cc1OC`, the inhibition is inactive: 18.4%.
The result for `CCC(CO)(C(=O)OC1CN2CCC1CC2)c1ccccc1` (centres undefined) reads inactive: 8.68%.
The result for `COc1cc(OC)cc(C(=O)NCC2(N3CCOCC3)CCCCC2)c1` reads inactive: -5.09%; that for `CCCOc1ccc(C)cc1CN(CCCl)CCCl`, inactive: 20.7%; that for `CCOc1ncccc1C(=O)NCC1(N2CCOCC2)CCCCC1`, inactive: -8.04%.
The result for `CC(C)(C)OC(=O)N1CCC(Nc2ccccc2)CC1` reads inactive: 16.1%.
On to `CCN1CCC(Nc2cccc(F)c2)CC1`, for which the inhibition is inactive: 42.7%.
For `CN(C)c1ccc(C(=O)NCC2(N3CCCCC3)CCCCC2)cc1` the value was inactive: 2.49%; for `Fc1ccccc1NC1CCN(Cc2ccccc2)CC1`, inactive: 19.5%.
The result for `Cc1ccc(OCC(C)C)c(CN(CCCl)CCCl)c1` reads inactive: 35.9%; that for `CCOc1ccc(C)cc1CN(CCCl)CCCl`, inactive: 32.1%; that for `COc1ccc(NC2CCN(CCc3ccccc3)CC2)c(OC)c1`, inactive: 22.9%.
For `O=C(NCC1(N2CCOCC2)CCCCC1)c1cc2ccccc2o1` the value was inactive: 9.2%; for `CCOC(=O)N1CCC(Nc2ccc(OC)cc2)CC1`, inactive: 36.8%; for `N#CC1(Nc2ccccc2)CCN(Cc2ccccc2)CC1`, inactive: 5.75%.
`O=C(OC1CN2CCC1CC2)C1c2ccccc2Oc2ccccc21` (centres undefined): the inhibition is inactive: 23.4%.
The result for `COc1ccc(C(=O)NCC2(N3CCCCC3)CCCCC2)c(OC)c1OC` reads inactive: 5.02%; that for `COc1ccc(CN(CCCl)CCCl)cc1Cl`, inactive: 19.6%; that for `CN(C)c1cccc(C(=O)NCC2(N3CCCCC3)CCCCC2)c1`, inactive: -10.6%.
For `CC(C)c1ccc(NC2CCN(C(=O)OC(C)(C)C)CC2)cc1` the value was inactive: 29.3%; for `COc1ccc(NC2CCN(C(=O)OC(C)(C)C)CC2)cc1`, inactive: 36.8%.
The result for `CN1CCN(CCOC(=O)C(O)(c2ccccc2)c2ccccc2)CC1` reads inactive: 13.2%; that for `O=C(NCC1(N2CCOCC2)CCCCC1)c1cc(=O)[nH]c2ccccc12`, inactive: -7.52%.
As for `O=C(NCC1(N2CCCCC2)CCCCC1)c1cccc([N+](=O)[O-])c1`, the inhibition was inactive: 16.7%.
For `N#CC1(Nc2ccccc2)CCN(CCc2ccccc2)CC1` the value was inactive: 10.4%.
